From patent US20090099157A1, “TETRAHYDRO-PYRAZOLO-PYRIDINE THIOETHER MODULATORS OF CATHEPSIN S” (priority 2007, published 2009)

The chains behind the UniProt entries cited, without tags or fusion partners. Residues count along the entry.
UniProt P25774, 115-331: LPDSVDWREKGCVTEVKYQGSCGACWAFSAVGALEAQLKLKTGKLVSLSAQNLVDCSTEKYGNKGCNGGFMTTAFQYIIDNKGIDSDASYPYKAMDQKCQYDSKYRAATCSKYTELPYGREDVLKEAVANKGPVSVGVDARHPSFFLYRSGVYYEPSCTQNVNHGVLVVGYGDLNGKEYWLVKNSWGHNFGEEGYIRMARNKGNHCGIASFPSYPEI

Target: Recombinant human cathepsin S (CatS) (Homo sapiens, UniProt P25774)
Assay: biochemical

SMILES | IC50
CC1CCN(C[C@H](O)Cn2nc(-c3ccc(C(F)(F)F)c(SCCN4CCC(F)(F)CC4)c3)c3c2CCN(S(C)(=O)=O)C3)CC1 [Example 576, (2S)-1-{3-[3-{[2-(4,4-Difluoropiperidin-1-yl)ethyl]sulfanyl}-4-(trifluoromethyl)phenyl]-5-(methylsulfonyl)-4,5,6,7-tetrahydro-1H-pyrazolo[4,3-c]pyridin-1-yl}-3-(4-methylpiperidin-1-yl)propan-2-ol] | 85 nM
CS(=O)(=O)N1CCc2c(c(-c3ccc(C(F)(F)F)c(SCCN4CCOCC4)c3)nn2CC(O)CN2CCc3ccccc3C2)C1 (stereo not shown) [Example 573, 1-(3,4-Dihydroisoquinolin-2(1H)-yl)-3-[5-(methylsulfonyl)-3-{3-[(2-morpholin-4-ylethyl)sulfanyl]-4-(trifluoromethyl)phenyl}-4,5,6,7-tetrahydro-1H-pyrazolo[4,3-c]pyridin-1-yl]propan-2-ol] | 460 nM
CC(C)(O)C1CCN(C[C@H](O)Cn2nc(-c3ccc(C(F)(F)F)c(SCCN4CCCC(F)C4)c3)c3c2CCN(S(C)(=O)=O)C3)CC1 (stereo partly drawn) [Example 656, (2S)-1-{3-[3-{[2-(3-Fluoropiperidin-1-yl)ethyl]sulfanyl}-4-(trifluoromethyl)phenyl]-5-(methylsulfonyl)-4,5,6,7-tetrahydro-1H-pyrazolo[4,3-c]pyridin-1-yl}-3-[4-(1-hydroxy-1-methylethyl)piperidin-1-yl]propan-2-ol] | 90 nM
CC(C)(O)C1CCN(C[C@H](O)Cn2nc(-c3ccc(C(F)(F)F)c(SCCN4CCC(F)(F)CC4)c3)c3c2CCN(S(C)(=O)=O)C3)CC1 [Example 723, (2S)-1-{3-[3-{[2-(4,4-Difluoropiperidin-1-yl)ethyl]sulfanyl}-4-(trifluoromethyl)phenyl]-5-(methylsulfonyl)-4,5,6,7-tetrahydro-1H-pyrazolo[4,3-c]pyridin-1-yl}-3-[4-(1-hydroxy-1-methylethyl)piperidin-1-yl]propan-2-ol] | 45 nM
CS(=O)(=O)N1CCc2c(c(-c3ccc(C(F)(F)F)c(SCCN4CCCC(F)C4)c3)nn2C[C@@H](O)CN2CCOCC2)C1 (stereo partly drawn) [Example 412, (2S)-1-{3-[3-{[2-(3-Fluoropiperidin-1-yl)ethyl]sulfanyl}-4-(trifluoromethyl)phenyl]-5-(methylsulfonyl)-4,5,6,7-tetrahydro-1H-pyrazolo[4,3-c]pyridin-1-yl}-3-morpholin-4-ylpropan-2-ol] | 490 nM
OC(CN1CCC(c2ccccc2)CC1)Cn1nc(-c2ccc(C(F)(F)F)c(SCCN3CCC(F)(F)C3)c2)c2c1CCNC2 (stereo not shown) [Example 416, 1-{3-[3-{[2-(3,3-Difluoropyrrolidin-1-yl)ethyl]sulfanyl}-4-(trifluoromethyl)phenyl]-4,5,6,7-tetrahydro-1H-pyrazolo[4,3-c]pyridin-1-yl}-3-(4-phenylpiperidin-1-yl)propan-2-ol] | 180 nM
CS(=O)(=O)N1CCc2c(c(-c3ccc(C(F)(F)F)c(SCC(=O)N4CC=C(c5ccccc5)CC4)c3)nn2CCCN2CCC(N3CCCC3=O)CC2)C1 [Example 106, 1-{1-[3-(5-Methanesulfonyl-3-{3-[2-oxo-2-(4-phenyl-3,6-dihydro-2H-pyridin-1-yl)-ethylsufanyl]-4-trifluoromethyl-phenyl}-4,5,6,7-tetrahydro-pyrazolo[4,3-c]pyridin-1-yl)-propyl]-piperidin-4-yl}-pyrrolidin-2-one] | 290 nM
CS(=O)(=O)N1CCc2c(c(-c3ccc(C(F)(F)F)c(SCCNC4Cc5ccccc5C4)c3)nn2CCCN2CCC(N3CCCC3=O)CC2)C1 [Example 815, 1-[1-(3-{3-[3-{[2-(2,3-Dihydro-1H-inden-2-ylamino)ethyl]sulfanyl}-4-(trifluoromethyl)phenyl]-5-(methylsulfonyl)-4,5,6,7-tetrahydro-1H-pyrazolo[4,3-c]pyridin-1-yl}propyl)piperidin-4-yl]pyrrolidin-2-one] | 290 nM
CS(=O)(=O)N1CCc2c(c(-c3ccc(C(F)(F)F)c(SCCN4CCC(F)CC4)c3)nn2C[C@H](O)CN2CCCCC2)C1 [Example 198, (2R)-1-{3-[3-{[2-(4-Fluoropiperidin-1-yl)ethyl]sulfanyl}-4-(trifluoromethyl)phenyl]-5-(methylsulfonyl)-4,5,6,7-tetrahydro-1H-pyrazolo[4,3-c]pyridin-1-yl}-3-piperidin-1-ylpropan-2-ol] | 400 nM
O=C(CO)N1CCc2c(c(-c3ccc(C(F)(F)F)c(SCCN4CCCCC4)c3)nn2CC(O)CN2CCC(c3ccccn3)CC2)C1 (stereo not shown) [Example 599, 1-[5-(Hydroxyacetyl)-3-{3-[(2-piperidin-1-ylethyl)sulfanyl]-4-(trifluoromethyl)phenyl}-4,5,6,7-tetrahydro-1H-pyrazolo[4,3-c]pyridin-1-yl]-3-(4-pyridin-2-ylpiperidin-1-yl)propan-2-ol] | 10 nM

More lines, now with the values ahead:

IC50 | SMILES
45 nM | CC(=O)NC1CCN(C[C@H](O)Cn2nc(-c3ccc(C(F)(F)F)c(SCCN4CCC(C)CC4)c3)c3c2CCN(S(C)(=O)=O)C3)CC1 [Example 645, N-{1-[(2S)-2-Hydroxy-3-{3-[3-{[2-(4-methylpiperidin-1-yl)ethyl]sulfanyl}-4-(trifluoromethyl)phenyl]-5-(methylsulfonyl)-4,5,6,7-tetrahydro-1H-pyrazolo[4,3-c]pyridin-1-yl}propyl]piperidin-4-yl}acetamide]
1100 nM | CS(=O)(=O)N1CCc2c(c(-c3ccc(C(F)(F)F)c(SCCN4CCOCC4)c3)nn2CC(O)CN2CCOC(CO)C2)C1 (stereo not shown) [Example 482, 1-[2-(Hydroxymethyl)morpholin-4-yl]-3-[5-(methylsulfonyl)-3-{3-[(2-morpholin-4-ylethyl)sulfanyl]-4-(trifluoromethyl)phenyl}-4,5,6,7-tetrahydro-1H-pyrazolo[4,3-c]pyridin-1-yl]propan-2-ol]
150 nM | CS(=O)(=O)N1CCc2c(c(-c3ccc(C(F)(F)F)c(SCCN4CC=CCC4)c3)nn2CCCN2CCC(N3CCCC3=O)CC2)C1 [Example 14, 1-{1-[3-(3-{3-[2-(3,6-Dihydro-2H-pyridin-1-yl)-ethylsulfanyl]-4-trifluoromethyl-phenyl}-5-methanesulfonyl-4,5,6,7-tetrahydro-pyrazolo[4,3-c]pyridin-1-yl)-propyl]-piperidin-4-yl}-pyrrolidin-2-one]
60 nM | CS(=O)(=O)N1CCc2c(c(-c3ccc(C(F)(F)F)c(SCCN4CCC(F)CC4)c3)nn2CC(O)CN2CCC(C(N)=O)CC2)C1 (stereo not shown) [Example 194, 1-(3-{3-[3-{[2-(4-Fluoropiperidin-1-yl)ethyl]sulfanyl}-4-(trifluoromethyl)phenyl]-5-(methylsulfonyl)-4,5,6,7-tetrahydro-1H-pyrazolo[4,3-c]pyridin-1-yl}-2-hydroxypropyl)piperidine-4-carboxamide]
170 nM | CS(=O)(=O)N1CCc2c(c(-c3ccc(C(F)(F)F)c(SCC(=O)N4CCOCC4)c3)nn2CC(O)CN2CCC(N3CCCC3)CC2)C1 (stereo not shown) [Example 686, 1-[5-(Methylsulfonyl)-3-{3-[(2-morpholin-4-yl-2-oxoethyl)sulfanyl]-4-(trifluoromethyl)phenyl}-4,5,6,7-tetrahydro-1H-pyrazolo[4,3-c]pyridin-1-yl]-3-(4-pyrrolidin-1-ylpiperidin-1-yl)propan-2-ol]
55 nM | CS(=O)(=O)N1CCc2c(c(-c3ccc(C(F)(F)F)c(SCCN4CCC(O)CC4)c3)nn2CC(O)CN2CCN(c3ccccc3)CC2)C1 (stereo not shown) [Example 712, 1-(2-{[5-{1-[2-Hydroxy-3-(4-phenylpiperazin-1-yl)propyl]-5-(methylsulfonyl)-4,5,6,7-tetrahydro-1H-pyrazolo[4,3-c]pyridin-3-yl}-2-(trifluoromethyl)phenyl]sulfanyl}ethyl)piperidin-4-ol]
220 nM | CS(=O)(=O)N1CCc2c(c(-c3ccc(C(F)(F)F)c(SCCN)c3)nn2CC(O)CN2CCC(N3CCCC3=O)CC2)C1 (stereo not shown) [Example 62, 1-[1-(3-{3-[3-(2-Amino-ethylsulfanyl)-4-trifluoromethyl-phenyl]-5-methanesulfonyl-4,5,6,7-tetrahydro-pyrazolo[4,3-c]pyridin-1-yl}-2-hydroxy-propyl)-piperidin-4-yl]-pyrrolidin-2-one]
190 nM | CS(=O)(=O)N1CCc2c(c(-c3ccc(C(F)(F)F)c(SCCN4CCCC(CO)C4)c3)nn2CC(O)CN2CCC(c3n[nH]c(=O)[nH]3)CC2)C1 (stereo not shown) [Example 804, 5-[1-(2-Hydroxy-3-{3-[3-({2-[3-(hydroxymethyl)piperidin-1-yl]ethyl}sulfanyl)-4-(trifluoromethyl)phenyl]-5-(methylsulfonyl)-4,5,6,7-tetrahydro-1H-pyrazolo[4,3-c]pyridin-1-yl}propyl)piperidin-4-yl]-2,4-dihydro-3H-1,2,4-triazol-3-one]
50 nM | CC(=O)NC1CCN(C[C@H](O)Cn2nc(-c3ccc(C(F)(F)F)c(SCCN4CCCC(F)(F)C4)c3)c3c2CCN(S(C)(=O)=O)C3)CC1 [Example 141, (2S)—N-{1-[3-(3-{3-[2-(3,3-Difluoro-piperidin-1-yl)-ethylsulfanyl]-4-trifluoromethyl-phenyl}-5-methanesulfonyl-4,5,6,7-tetrahydro-pyrazolo[4,3-c]pyridin-1-yl)-2-hydroxy-propyl]-piperidin-4-yl}-acetamide]
140 nM | CS(=O)(=O)N1CCc2c(c(-c3ccc(C(F)(F)F)c(SCC(=O)N4CCC(O)CC4)c3)nn2CCCN2CCC(N3CCCC3=O)CC2)C1 [Example 78]
190 nM | CCCNCCSc1cc(-c2nn(CCCN3CCC(N4CCCC4=O)CC3)c3c2CN(S(C)(=O)=O)CC3)ccc1C(F)(F)F [Example 531, 1-[1-(3-{5-(Methylsulfonyl)-3-[3-{[2-(propylamino)ethyl]sulfanyl}-4-(trifluoromethyl)phenyl]-4,5,6,7-tetrahydro-1H-pyrazolo[4,3-c]pyridin-1-yl}propyl)piperidin-4-yl]pyrrolidin-2-one]
1060 nM | CN1CCN(CCSc2cc(-c3nn(CCCN4CCC(N5CCCC5=O)CC4)c4c3CN(S(C)(=O)=O)CC4)ccc2C(F)(F)F)CC1 [Example 32, 1-{1-[3-(5-Methanesulfonyl-3-{3-[2-(4-methyl-piperazin-1-yl)-ethylsulfanyl]-4-trifluoromethyl-phenyl}-4,5,6,7-tetrahydro-pyrazolo[4,3-c]pyridin-1-yl)-propyl]-piperidin-4-yl}-pyrrolidin-2-one]
